Laboratory results: US7906482B2, “Anti-obesity agents” (Advanced Diagnostics and Discovery, priority 1999, dated 2011)

System: Sprague-Dawley rats
Test: Food intake in rats following IV administration
Type: in vivo, rat
Conditions: tail vein injection
Text: FIG. 1 is a diagram showing a comparison between the anti-obesity activity of PYY3-36 and the anti-obesity activity a compound according to a preferred embodiment of the invention, wherein the anti-obesity activity of these compounds has been determined in an experiment by administering them, at various doses, to Sprague-Dawley rats and by measuring the food consumption of these rats before and after administration of these compounds;
FIG. 2 is another diagram as in FIG. 1, wherein the PYY peptide and the compound according to a preferred embodiment of the invention have been administered to the rats according to other dosages;
FIG. 3 is a diagram showing the reduction in food intake after 24 hours, which has been generated by the administration of the PYY peptide and the compound of the invention, during the experiment described in FIG. 1;
FIG. 4 is a diagram showing the reduction in food intake after 24 hours, which has been generated by the administration of the PYY peptide and the compound of the invention, during the experiment described in FIG. 2; and
Compound I (PYY3-36) and Compound III were injected into the tail vein of fully grown Sprague-Dawley rats. Two experiments were carried out so as to verify the influence of the concentration on Compound III of the food consumption of the animal. The food intake was measured pre and post administration (see FIGS. 1 and 2). […]

Structure (SMILES): CC[C@H](C)[C@H](N)C(=O)N[C@@H](CCCCN)C(=O)N1CCC[C@H]1C(=O)N[C@@H](CCC(=O)O)C(=O)N[C@@H](C)C(=O)N1CCC[C@H]1C(=O)NCC(=O)N[C@@H](CCC(=O)O)C(=O)N[C@@H](CC(=O)O)C(=O)N[C@@H](C)C(=O)N[C@@H](CO)C(=O)N1CCC[C@H]1C(=O)N[C@@H](CCC(=O)O)C(=O)N[C@@H](CCC(=O)O)C(=O)N[C@@H](CC(C)C)C(=O)N[C@@H](CC(N)=O)C(=O)N[C@@H](CCCNC(=N)N)C(=O)N[C@@H](Cc1ccc(O)cc1)C(=O)N[C@@H](Cc1ccc(O)cc1)C(=O)N[C@@H](C)C(=O)N[C@@H](CO)C(=O)N[C@@H](CC(C)C)C(=O)N[C@@H](CCCNC(=N)N)C(=O)N[C@@H](Cc1c[nH]cn1)C(=O)N[C@@H](Cc1ccc(O)cc1)C(=O)N[C@@H](CC(C)C)C(=O)N[C@@H](CC(N)=O)C(=O)N[C@@H](CC(C)C)C(=O)N[C@H](C(=O)N[C@H](C(=O)N[C@@H](CCCNC(=N)N)C(=O)N[C@@H](CCC(N)=O)C(=O)N[C@@H](CCCNC(=N)N)C(=O)N[C@@H](Cc1ccc(O)cc1)C(N)=O)[C@@H](C)O)C(C)C [Compound I]
- reduction in food intake after 24 hrs (dose of 25 nmol/kg): does not show reduction in food
- reduction in food intake after 24 hrs (dose of 375 nmol/kg): does not show reduction in food
